ChEMBL document CHEMBL1135092, “Molecular design and structure--activity relationships leading to the potent, selective, and orally active thrombin active site inhibitor BMS-189664” (Bioorg Med Chem Lett, 2002)

target: Prothrombin (Homo sapiens, UniProt P00734); experiment: In vitro inhibitory activity against hydrolysis of human alpha thrombin

Row | Compound | IC50 [µM]
1 | N=C(N)N1CCC(CNC(=O)[C@@H]2CCCN2C(=O)[C@@H](Cc2ccccc2)NS(=O)(=O)Cc2ccccc2)CC1 | 0.01
2 | CS(=O)(=O)N[C@H](Cc1ccccc1)C(=O)N1CCC[C@H]1C(=O)NCCc1cnc[nH]1 | 134
3 | NC(=O)CC[C@@H](NS(=O)(=O)c1ccc2ccccc2c1)C(=O)N1CCC[C@H]1C(=O)NCCCCN=C(N)N | 26.6

Continued by falling IC50, values first:

Row | IC50 [µM] | Compound
4 | 110 | N=C(N)NCCCCNC(=O)[C@@H]1CCCN1C(=O)[C@@H](Cc1ccccc1)NS(=O)(=O)C(F)(F)F
5 | 1.4 | CS(=O)(=O)N[C@H](Cc1ccccc1)C(=O)N1CCC[C@H]1C(=O)NCCCCNC(=N)N
